Drawing on patent US10221197B2, “Phosphatidylinositol 3-kinase inhibitors” (Gilead Sciences, Inc., priority 2014, dated 2019), this text covers IC50 for six compounds.

Chains of the proteins cited; added tags and fusions are not shown. Lines headed by an entry give the natural chain unless they say otherwise; changes in a name come on top.
UniProt O00329: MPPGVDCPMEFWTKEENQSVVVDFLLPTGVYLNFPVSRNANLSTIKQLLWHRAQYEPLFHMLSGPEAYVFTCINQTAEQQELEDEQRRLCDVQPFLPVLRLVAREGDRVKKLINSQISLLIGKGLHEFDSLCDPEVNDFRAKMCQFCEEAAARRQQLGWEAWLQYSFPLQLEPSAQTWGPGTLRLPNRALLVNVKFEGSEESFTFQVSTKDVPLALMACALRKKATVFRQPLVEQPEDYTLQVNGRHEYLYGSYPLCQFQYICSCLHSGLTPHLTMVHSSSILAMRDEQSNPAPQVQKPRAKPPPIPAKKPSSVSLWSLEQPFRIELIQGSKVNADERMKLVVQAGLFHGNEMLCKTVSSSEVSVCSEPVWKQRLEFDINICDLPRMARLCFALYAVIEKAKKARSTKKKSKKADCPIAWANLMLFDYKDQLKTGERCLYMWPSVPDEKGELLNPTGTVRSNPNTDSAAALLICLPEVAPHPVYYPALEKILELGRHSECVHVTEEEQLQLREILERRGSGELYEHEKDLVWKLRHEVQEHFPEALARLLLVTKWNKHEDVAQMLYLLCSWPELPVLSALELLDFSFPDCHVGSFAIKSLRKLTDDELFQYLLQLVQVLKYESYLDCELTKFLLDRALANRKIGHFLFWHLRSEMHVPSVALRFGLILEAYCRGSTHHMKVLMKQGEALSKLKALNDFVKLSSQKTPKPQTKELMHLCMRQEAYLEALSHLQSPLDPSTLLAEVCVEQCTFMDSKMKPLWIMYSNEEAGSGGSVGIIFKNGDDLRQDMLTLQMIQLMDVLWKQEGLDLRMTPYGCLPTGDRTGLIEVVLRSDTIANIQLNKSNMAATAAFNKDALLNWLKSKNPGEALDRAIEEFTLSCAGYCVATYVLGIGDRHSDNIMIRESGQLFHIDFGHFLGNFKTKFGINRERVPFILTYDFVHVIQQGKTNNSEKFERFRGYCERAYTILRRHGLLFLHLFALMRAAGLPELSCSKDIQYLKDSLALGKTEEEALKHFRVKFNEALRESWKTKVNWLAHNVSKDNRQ
UniProt P48736: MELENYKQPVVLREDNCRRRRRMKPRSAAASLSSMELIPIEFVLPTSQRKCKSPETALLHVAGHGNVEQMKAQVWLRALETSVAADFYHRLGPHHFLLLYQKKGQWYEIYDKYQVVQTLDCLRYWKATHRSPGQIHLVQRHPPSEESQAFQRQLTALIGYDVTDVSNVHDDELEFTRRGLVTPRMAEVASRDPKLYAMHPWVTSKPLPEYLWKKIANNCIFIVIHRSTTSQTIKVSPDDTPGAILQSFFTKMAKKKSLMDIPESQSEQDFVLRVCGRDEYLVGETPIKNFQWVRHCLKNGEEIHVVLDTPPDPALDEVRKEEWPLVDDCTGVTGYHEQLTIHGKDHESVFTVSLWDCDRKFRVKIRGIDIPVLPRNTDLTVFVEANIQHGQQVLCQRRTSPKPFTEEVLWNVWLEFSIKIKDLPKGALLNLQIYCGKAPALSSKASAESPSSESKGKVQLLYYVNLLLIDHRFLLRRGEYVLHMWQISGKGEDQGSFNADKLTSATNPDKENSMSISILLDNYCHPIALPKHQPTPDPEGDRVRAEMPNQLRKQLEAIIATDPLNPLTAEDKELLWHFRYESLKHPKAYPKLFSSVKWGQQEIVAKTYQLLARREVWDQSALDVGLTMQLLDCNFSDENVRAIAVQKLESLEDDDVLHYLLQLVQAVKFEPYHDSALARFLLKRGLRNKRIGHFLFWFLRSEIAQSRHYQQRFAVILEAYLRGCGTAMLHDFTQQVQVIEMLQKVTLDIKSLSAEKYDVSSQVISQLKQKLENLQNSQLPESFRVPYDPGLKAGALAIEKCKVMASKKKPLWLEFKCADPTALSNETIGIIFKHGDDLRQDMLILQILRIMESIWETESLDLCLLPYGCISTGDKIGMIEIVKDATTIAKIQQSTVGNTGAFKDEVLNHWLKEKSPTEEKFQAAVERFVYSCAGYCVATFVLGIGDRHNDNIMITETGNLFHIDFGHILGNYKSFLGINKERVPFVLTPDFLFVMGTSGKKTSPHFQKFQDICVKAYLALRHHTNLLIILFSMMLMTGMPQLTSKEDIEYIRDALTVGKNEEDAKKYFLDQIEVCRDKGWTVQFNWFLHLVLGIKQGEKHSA

In one experiment the target is PI3Kδ (Homo sapiens (Human), UniProt O00329). Description: TR-FRET enzymatic assay of PI3K isoforms (PI3Kδ). The experiment is classed as biochemical. The conditions noted are these: 2×Km ATP, 2 μM PIP2, incubated for 30 minutes at 25° C., read-out: δ IC50. (In general: In TR-FRET formats the signal depends on donor and acceptor labels being close together.)
As usually defined, the IC50 is the concentration needed to halve the response being measured. For `COCCNC(=O)Nc1cccc(-n2c(C(C)Oc3ncnc4scnc34)nc3cccc(Cl)c3c2=O)c1` (stereo not drawn) [Compound 149, 1-(3-(5-chloro-4-oxo-2-(1-(thiazolo[5,4-d]pyrimidin-7-yloxy)ethyl)quinazolin-3(4H)-yl)phenyl)-3-(2-methoxyethyl)urea], the half-inhibitory concentration (IC50) amounted to 11 nM.
On the same count and under the same terms, the value for `CCNC(=O)Nc1cccc(-n2c([C@H](C)Nc3ncnn4ccnc34)nc3cccc(Cl)c3c2=O)c1` [Compound 71, (S)-1-(3-(5-chloro-2-(1-(imidazo[2,1-f][1,2,4]triazin-4-ylamino)ethyl)-4-oxoquinazolin-3(4H)-yl)phenyl)-3-ethylurea] was 11 nM.
Consider `CCNC(=O)Nc1cccc(-n2c([C@@H](C)Nc3ncnc(N)c3C#N)nc3cccc(Cl)c3c2=O)c1` [Compound 44, (R)-1-(3-(2-(1-((6-amino-5-cyanopyrimidin-4-yl)amino)ethyl)-5-chloro-4-oxoquinazolin-3(4H)-yl)phenyl)-3-ethylurea], for which the concentration for half-maximal inhibition (IC50) is 230 nM.
The same measure, in the same setting: the value for `CCNC(=O)Nc1cccc(-n2c([C@H](C)Nc3ncnc(N)c3C#N)nc3cccc(Cl)c3c2=O)c1` [Compound 90, (S)-1-(3-(2-(1-((6-amino-5-cyanopyrimidin-4-yl)amino)ethyl)-5-chloro-4-oxoquinazolin-3(4H)-yl)phenyl)-3-ethylurea] was 7 nM.

A further experiment has as its target PI3Kγ (Homo sapiens (Human), UniProt P48736). Description: TR-FRET enzymatic assay of PI3K isoforms (PI3Kγ). The class given is biochemical. The following applies: 2×Km ATP, 2 μM PIP2, PI3Kγ at 2 nM, incubated for 30 minutes at 25° C., read-out: γ IC50.
Regarding `N#Cc1c(N)nc(N)nc1N[C@H](c1nc2c(Cl)cc(F)cc2c(=O)n1-c1cccc(C(N)=O)c1)C1CC1` [Compound 27, (S)-3-(8-chloro-2-(cyclopropyl((2,6-diamino-5-cyanopyrimidin-4-yl)amino)methyl)-6-fluoro-4-oxoquinazolin-3(4H)-yl)benzamide], the half-maximal inhibitory concentration (IC50) came out at 600 nM.
Still for that read-out and setting: then `CCNC(=O)Nc1cccc(-n2c([C@H](C)Nc3ncnc(N)c3C#N)nc3cccc(C(F)(F)F)c3c2=O)c1` [Compound 51, (S)-1-(3-(2-(1-((6-amino-5-cyanopyrimidin-4-yl)amino)ethyl)-4-oxo-5-(trifluoromethyl)quinazolin-3(4H)-yl)phenyl)-3-ethylurea], with 7900 nM.
